Consider 4 molecules from patent EP4834882A1, “ALDOSTERONE SYNTHETASE INHIBITOR, AND PREPARATION METHOD THEREFOR AND USE THEREOF” (dated 2026).

Chains of the proteins cited; added tags and fusions are not shown. Residues count along the entry.
UniProt P19099, 25-503 limits assumed: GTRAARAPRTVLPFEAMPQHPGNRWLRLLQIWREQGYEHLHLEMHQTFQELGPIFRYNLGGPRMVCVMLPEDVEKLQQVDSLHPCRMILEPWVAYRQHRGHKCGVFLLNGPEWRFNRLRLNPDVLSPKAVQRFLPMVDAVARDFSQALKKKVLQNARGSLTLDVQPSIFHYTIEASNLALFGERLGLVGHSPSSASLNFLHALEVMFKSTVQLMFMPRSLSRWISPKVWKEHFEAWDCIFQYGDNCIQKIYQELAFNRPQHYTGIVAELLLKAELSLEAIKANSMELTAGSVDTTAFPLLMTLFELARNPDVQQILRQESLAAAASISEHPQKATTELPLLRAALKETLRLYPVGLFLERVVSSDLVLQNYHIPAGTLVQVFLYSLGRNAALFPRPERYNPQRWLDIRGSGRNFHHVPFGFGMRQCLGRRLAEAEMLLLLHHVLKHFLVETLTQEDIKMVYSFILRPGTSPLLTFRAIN
UniProt P15538, 25-503 limits assumed: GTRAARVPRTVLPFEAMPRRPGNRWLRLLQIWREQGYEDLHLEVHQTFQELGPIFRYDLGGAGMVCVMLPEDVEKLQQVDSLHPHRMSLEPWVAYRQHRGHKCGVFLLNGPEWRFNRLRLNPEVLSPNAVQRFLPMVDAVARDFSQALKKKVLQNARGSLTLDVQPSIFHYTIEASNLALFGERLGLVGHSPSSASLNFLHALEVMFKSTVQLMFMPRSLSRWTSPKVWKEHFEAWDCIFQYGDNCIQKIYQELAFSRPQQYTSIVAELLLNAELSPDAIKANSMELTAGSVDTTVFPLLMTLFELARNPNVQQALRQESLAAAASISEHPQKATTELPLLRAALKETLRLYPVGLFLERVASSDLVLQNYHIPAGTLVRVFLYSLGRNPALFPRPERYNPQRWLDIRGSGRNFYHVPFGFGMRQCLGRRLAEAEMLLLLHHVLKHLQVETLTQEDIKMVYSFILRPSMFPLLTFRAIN

For one series, the target named is human CYP11B2 (Homo sapiens, UniProt P19099). Nature of the series: H295R steroidogenesis assay, inhibition of aldosterone synthase. The conditions noted are these: read-out: CYP11B2 Ki; NCI-H295R cells, 10 µM deoxycorticosterone, 48 h, aldosterone by LC-MS; Ki = IC50/(1 + [S]/Km). The procedure: (§1) The H295R steroidogenesis assay system was used in the present invention for testing the enzyme activities of human CYP11B1, human CYP11B2, etc. The in vitro H295R steroidogenesis assay system utilizes a human adrenocortical carcinoma cell line (NCI-H295R cells) as a Tier 2 "in vitro assay that provides mechanistic data" for screening and prioritization purposes. The development and standardization of this method were performed in a multi-step process for screening chemical effects on steroidogenesis, and the H295R assay method has been optimized and validated according to the OECD Test Guideline (Test Guideline No. 456 H295R Steroidogenesis Assay).
(§2) NCI-H295R cells were purchased from ATCC. After initiating culture from the original ATCC batch, NCI-H295R cells were cultured for five passages (i.e., undergo four rounds of cell divisions), and then the cells at passage five were cryopreserved and stored in liquid nitrogen.
(§3) H295R cells were cultured in a cell culture incubator at 37°C and 5% CO2, and the medium was replaced 2-3 times per week. Cells were passaged when they reached approximately 85-90% confluency. The medium was aspirated, and the cells were washed three times with DPBS (Ca^2+ and Mg^2+ -free), and then trypsin was added to digest for 1-3 min. The digestion was terminated by adding 3 mL of culture medium. The cells were then dislodged by pipetting, and any remaining cells were rinsed off with 1 mL of medium. The cell suspension was pooled and transferred to a 15 mL centrifuge tube. After centrifuging at room temperature and 800 rpm for 5 min, the supernatant was discarded, the pellet was resuspended in 3 mL of medium, and the cell suspension was counted. The edge wells of a 96-well plate are left empty, and the remaining wells are seeded with 50,000 cells per well in 100 µL of 10% FBS DMEM/F12 (1:1) basal medium..After overnight recovery, the medium was replaced with basal medium containing 10 µM Forskolin (150 µL per well), and the cells were incubated for 48 h. After 48 h, the medium was replaced with basal medium containing 10 µM deoxycorticosterone. The compound was dissolved in DMSO to prepare a 100 mM stock solution. Starting from 100 mM, the compounds are subjected to 3-fold serial dilutions in DMSO, resulting in 10 concentration points. These 10 concentration points was then diluted 10-fold with blank DMEM:F12 (1:1) medium, resulting in a starting concentration of 10 mM. An aliquot of 1.5 µL of each compound concentration was added to the cells, achieving a final DMSO concentration of 0.1% and a starting compound concentration of 100 µM. After incubation for 48 h, 40 µL of cell supernatant was collected and analyzed for the levels of aldosterone and cortisol by LC-MS.
(§4) The inhibition rate was calculated using the following formula: [formula]
(§5) Using the logarithm of the compound concentration as the x-axis and the inhibition rate as the y-axis. Nonlinear regression curve fitting was performed using Graphpad 9.0 to calculate the IC50 value (Y=Bottom+(Top - Bottom)/(1+ 10^((LogIC50 - X)×HillSlope))), Ki = IC50/(1 + [S]/Km), and the test results are shown in Table 1. Unless otherwise specified, competitive inhibition is assumed for all proteases. Selectivity = CYP11B1 Ki (nM)/CYP11B2 Ki (nM); wherein, A represents a selectivity value between 0 and 50, B represents a selectivity value between 51 and 100, C represents a selectivity value between 101 and 150, and D represents a selectivity value above 151. Table 1: Inhibitory effect of compounds on CYP11B2

Series [1] is described as follows: In vitro hepatic microsome stability. The conditions noted are these: Human hepatic microsomes; for ER: slow metabolism ER<0.3, moderate 0.3<ER<0.7, fast ER>0.7; for T1/2: with NADPH, 37°C. The procedure: The compounds of Examples 1-49 (test substances) and the positive control drug were dissolved in DMSO to prepare stock solutions (10 mM). The stock solutions were diluted with acetonitrilewater (1:1, v/v) to obtain 100 µM solutions, which was further diluted with 0.1 M potassium phosphate buffer to obtain working solutions (30 µM).
NADPH powder was weighed and dissolved in 0.1 M potassium phosphate buffer to obtain a 5 mg/mL solution.
Hepatic microsomes from each species (20 mg/mL) were diluted with 0.1 M potassium phosphate buffer to parepare 0.8 mg/mL hepatic microsome working solutions.
25 µL of the test substance or positive control drug working solution was added to 475 µL of the hepatic microsome working solution and mixed thoroughly. The mixture was aliquoted into a 96-well plate at 30 µL/well (n=2). For the 0 min samples, 150 µL of internal standard acetonitrile solution was added to precipitate proteins, followed by the addition of 15 µL of NADPH solution, and these samples were then stored in a refrigerator at 4°C. Other samples were pre-incubated at 37°C for 10 min. For the 20 min and 60 min samples, 15 µL of NADPH solution was added to initiate the reaction. For samples without NADPH, 15 µL of potassium phosphate buffer was added instead. All samples were then incubated at 37°C. Upon reaching the designated reaction time, 150 µL of internal standard acetonitrile solution was added to precipitate proteins.
The precipitated samples were vortexed and then centrifuged at 4000 rpm for 5 min. 100 µL of purified water was added to the supernatant , followed by LC-MS analysis.
The peak area ratio of the analyte to the internal standard was used to calculate the relative percentage of the compound remaining after incubation (remaining rate %) and for exponential function fitting. The calculation formula was as follows: [formula] [formula] [formula]

The target in the next series is human CYP11B1 (Homo sapiens, UniProt P15538). Nature of the series: H295R steroidogenesis assay, selectivity CYP11B1 versus CYP11B2. The conditions noted are these: Selectivity = CYP11B1 Ki (nM)/CYP11B2 Ki (nM); NCI-H295R cells. The procedure: as §1, §2, §3, §4, §5
The nature of series [2]: Pharmacokinetic study in cynomolgus monkeys. The note with it: Cynomolgus monkey, ig. The procedure:
• Cynomolgus monkeys: male, 180-250g, purchased from Guangxi Grandforest Scientific Primate Company, Ltd. • Reagents: DMSO (dimethyl sulfoxide), PEG400, saline, heparin, acetonitrile, formic acid, propranolol (internal standard) are all commercially available. • Instrument: AB SCIEX 7500.
The compound was weighed and dissolved in a DMSO-PEG-400-saline (5:60:35, v/v/v) system. Following intragastric administration to cynomolgus monkeys, 200 µL of venous blood was collected into EDTA-K2 anticoagulant tubes at 30 min, 60 min, 90 min, 2 h, 3 h, 5 h, 8 h, and 24 h. The blood samples were centrifuged at 12,000 rpm for 2 min, and the plasma was collected and stored at -80°C for subsequent analysis. An appropriate amount of the test compound was accurately weighed and dissolved in DMSO to a concentration of 2 mg/mL as a stock solution. Appropriate volumes of the compound stock solution were accurately pipetted and diluted with acetonitrile to prepare a series of standard solutions. A series of standard solutions were prepared at concentrations equivalent to plasma concentrations of 0.3, 1, 3, 10, 30, 100, 300, 1000, and 3000 ng/mL by accurately pipetting 10 µL of each standard solution and adding it to 90 µL of blank plasma, followed by vortexing to mix. Quality control samples were prepared at plasma concentrations of 2.4, 120, and 2400 ng/mL. Duplicate samples were analyzed for each concentration , and the standard curve was established. Subsequently, 30 µL aliquot of plasma was taken, and 150 µL of acetonitrile solution containing the internal standard propranolol (50 ng/mL) was added. After vortexing to mix, 100 µL of purified water was added, and the mixture was vortexed again to mix. It was then centrifuged at 4000 rpm for 5 minutes, and the supernatant was collected for LC-MS analysis. The LC-MS detection conditions were as follows: Chromatographic column: YMC Triart C18, 50×3.0mm, 2.1µm. Mobile phase: gradient elution with a mixture of water (containing 0.1% formic acid) and acetonitrile as described in the table below:
After the plasma concentration was determined by LC-MS, the pharmacokinetic parameters were calculated using WinNonlin 6.1 software with a non-compartmental model, and the results are shown in Table 4. Table 4 Pharmacokinetic results of the compounds of the present invention in Cynomolgus monkey

A short description of series [3]: Rat pharmacokinetic study. The conditions noted are these: SD rats. The source says: • SD rats: male, 180-250g, purchased from Beijing Vital River Laboratory Animal Technology Co., Ltd. • Reagents: DMSO (dimethyl sulfoxide), PEG-400 (polyethylene glycol 400), saline, heparin, acetonitrile, formic acid, and propranolol (internal standard) are all commercially available. Instrument: AB SCIEX QTRAP 5500+.
The compounds of Examples 1-49 of the present invention were weighed and dissolved in a DMSO-PEG-400-saline (5:60:35, v/v/v) system. Following intravenous or intragastric administration to rats, venous blood samples (200 µL) were collected into EDTA-K2 anticoagulant tubes at the following time points: 15 min, 30 min, 1 h, 2 h, 5 h, 7h, and 24 h (with an additional 5-min time point for the i.v. group). The samples were centrifuged at 12,000 rpm for 2 minutes, and the obtained plasma was stored at -80°C until analysis. A certain amount of the test sample was accurately weighed and dissolved in DMSO to 2 mg/mL as a stock solution. An appropriate amount of the stock solution of each test compound was accurately pipetted and diluted with acetonitrile to prepare a series of standard solutions. 10 µL of each of the above series of standard solutions was accurately pipetted, to which was added 90 µL of blank plasma, and vortexed to prepare plasma samples with plasma concentrations equivalent to 1, 3, 5, 10, 30, 100, 300, 1000, 3000 ng/mL. Duplicate samples were analyzed for each concentration to establish a standard curve. 30 µL aliquot of each plasma sample was used (samples from the 5, 15, and 30 min i.v. time points were diluted 5-fold prior to analysis). Then, 150 µL of acetonitrile containing the internal standard propranolol (50 ng/mL) was added. After vortexing, 100 µL of purified water was added, and the mixture was vortexed again, followed by centrifugation at 4000 rpm for 5 minutes. The supernatant was collected and analyzed by LC-MS.
The LC-MS analysis was performed under the following conditions: Chromatographic column: YMC Triart C18, 50×3.0mm, 2.1µm. Mobile phase: gradient elution with a mixture of water (containing 0.1% formic acid) and acetonitrile as described in the table below:
After the plasma concentration was determined by LC-MS, the pharmacokinetic parameters were calculated using WinNonlin 6.1 software with a non-compartmental model. Table 2 Pharmacokinetic results of the compounds of the present invention in rats

Bounds are passed on as bounds.

Consider `CCC(=O)N[C@@H]1CCCc2c(-c3ccc4ncccc4c3)cncc21`, for which the inhibition constant (Ki) at human CYP11B2 was below 50 nM. The ER in series [1] was below 0.04. In addition, the Selectivity result on human CYP11B1 is “B (B represents a selectivity value between 51 and 100)”.

In the case of `CCC(=O)N[C@@H]1CCCc2c(-c3ccc4c(c3)CCC(=O)N4C)cncc21`, the AUClast worked out at 121 ng·h/mL in series [2] (0.05 mg/kg); 46238 ng·h/mL in series [2] (20 mg/kg); 5050 ng·h/mL in series [3] (1 mg/kg, i.v); 28400 ng·h/mL in series [3] (5 mg/kg, p.o). Moreover, the Cmax in series [2] (0.05 mg/kg) was determined as 18.9 ng/mL; in series [2] (20 mg/kg), 7157 ng/mL; in series [3] (1 mg/kg, i.v), 1270 ng/mL; in series [3] (5 mg/kg, p.o), 2980 ng/mL. The T1/2 in series [2] (0.05 mg/kg) amounted to 5.52 h; in series [2] (20 mg/kg), 4.08 h; in series [1], 11.5 h; in series [3] (1 mg/kg, i.v), 3.92 h; in series [3] (5 mg/kg, p.o), 4.37 h. Moreover, the ER in series [1] is 0.11.

For the molecule `CCC(=O)N[C@@H]1CCCc2c(-c3ccc4nc(C#N)ccc4c3)cncc21`, at human CYP11B2, the Ki was below 50 nM. The AUClast in series [2] (0.05 mg/kg) amounted to 122 ng·h/mL; in series [2] (20 mg/kg) it was 68600 ng·h/mL; in series [3] (1 mg/kg, i.v), 7910 ng·h/mL; in series [3] (5 mg/kg, p.o), 53800 ng·h/mL. Moreover, the maximum concentration (Cmax) worked out at 14.3 ng/mL in series [2] (0.05 mg/kg); 7800 ng/mL in series [2] (20 mg/kg); 2850 ng/mL in series [3] (1 mg/kg, i.v); 6280 ng/mL in series [3] (5 mg/kg, p.o). Also, the T1/2 in series [2] (0.05 mg/kg) stood at 8.55 h; in series [2] (20 mg/kg), 7.06 h; in series [3] (1 mg/kg, i.v), 2.05 h; in series [3] (5 mg/kg, p.o), 2.50 h. For the same molecule, the Selectivity entry at human CYP11B1 is “A (A represents a selectivity value between 0 and 50)”.

Regarding `CCC(=O)N[C@@H]1CCCc2c(-c3ccc4cnn(C)c4c3)cncc21`, in series [1], the “T1/2” value came out at 34.95 h and the ER came out at 0.04.
